In patent US10709709B2, “Substituted carbonucleoside derivatives useful as anticancer agents” (Pfizer Inc., priority 2016, dated 2020) one finds IC50 data, which are given here for one compound.

Chains of the proteins cited; added tags and fusions are not shown. A line that says so, or that is headed by a name, gives the form on record, which may keep a tag or linker. Residues count along the entry.
UniProt O14744, 2-637 with tags or gaps limits assumed: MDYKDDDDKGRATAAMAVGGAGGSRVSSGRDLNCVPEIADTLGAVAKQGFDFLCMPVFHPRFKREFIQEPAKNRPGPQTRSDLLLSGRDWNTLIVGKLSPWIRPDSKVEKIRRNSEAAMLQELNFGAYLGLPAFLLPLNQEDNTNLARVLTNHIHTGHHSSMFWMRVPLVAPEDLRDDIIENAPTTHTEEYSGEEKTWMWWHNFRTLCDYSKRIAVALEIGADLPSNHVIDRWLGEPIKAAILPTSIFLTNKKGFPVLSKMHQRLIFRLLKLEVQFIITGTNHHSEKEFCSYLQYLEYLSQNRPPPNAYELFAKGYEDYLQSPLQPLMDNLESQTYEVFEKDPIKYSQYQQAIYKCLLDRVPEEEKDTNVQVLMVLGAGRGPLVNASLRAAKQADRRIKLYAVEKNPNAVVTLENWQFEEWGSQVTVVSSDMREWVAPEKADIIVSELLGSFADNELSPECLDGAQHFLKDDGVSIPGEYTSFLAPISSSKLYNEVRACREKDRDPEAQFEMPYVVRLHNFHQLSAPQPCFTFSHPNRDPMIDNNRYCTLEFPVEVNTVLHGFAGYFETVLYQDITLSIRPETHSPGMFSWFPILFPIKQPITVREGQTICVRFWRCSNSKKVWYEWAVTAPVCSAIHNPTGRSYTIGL
UniProt Q9BQA1, whole entry partner: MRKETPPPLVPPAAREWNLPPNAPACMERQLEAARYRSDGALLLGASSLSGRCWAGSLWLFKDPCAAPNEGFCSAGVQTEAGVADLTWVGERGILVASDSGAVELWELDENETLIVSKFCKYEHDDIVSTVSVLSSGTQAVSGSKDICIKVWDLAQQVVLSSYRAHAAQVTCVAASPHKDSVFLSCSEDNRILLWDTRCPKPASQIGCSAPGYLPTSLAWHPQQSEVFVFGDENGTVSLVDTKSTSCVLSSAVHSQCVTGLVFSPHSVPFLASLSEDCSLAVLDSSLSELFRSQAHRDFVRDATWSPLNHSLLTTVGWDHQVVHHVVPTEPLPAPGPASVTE

In the assay the target is PRMT5/MEP50 protein complex (Homo sapiens (Human), UniProt O14744). Description: PRMT5 biochemical assay (3H-SAM methylation of H4(1-21) peptide, filter plate scintillation). As to conditions: read-out: PRMT5 IC50; 10 nM PRMT5/MEP50 complex, 200 nM H4(1-21) peptide, 1 uM SAM, 25 minute incubation at room temperature.

As to `Nc1ncnc2c1c(F)cn2[C@@H]1C[C@H](Oc2cccc3c2CCNC3)[C@@H](O)[C@H]1O`, the IC50 (commonly the point on the concentration scale where inhibition reaches its midpoint) worked out at 0.028 µM.
